Literature values, collected in patent publication US5632983A, “Method for treating secondary immunodeficiency” (University of South Florida, priority 1994, dated 1997).

Assays:
T lymphocyte [1] = settings: mouse, in vivo; cited from earlier work
T lymphocyte [2] = settings: rIL-2 in equivalent dose; cited from earlier work
malignant melanoma = settings: low dose; rIL-2 in equivalent dose; cited from earlier work

rIL-2: non-glycosylated protein that is produced by the human cDNA sequence of Interleukin-2
inactive: T lymphocyte development in neonatal mice (T lymphocyte [1]) | T lymphocyte development and function in hydrocortisone-treated, aged mice (T lymphocyte [2]) | life in mice bearing malignant melanoma (malignant melanoma)
